This note sets out measurements from PubChem BioAssay AID2107 (National Center for Advancing Translational Sciences (NCATS), 2009).

Sequences of proteins named here, by UniProt entry; tags and fusion partners are left off. A change or cut given only in a name is not applied to a line headed by its entry.
UniProt P06280: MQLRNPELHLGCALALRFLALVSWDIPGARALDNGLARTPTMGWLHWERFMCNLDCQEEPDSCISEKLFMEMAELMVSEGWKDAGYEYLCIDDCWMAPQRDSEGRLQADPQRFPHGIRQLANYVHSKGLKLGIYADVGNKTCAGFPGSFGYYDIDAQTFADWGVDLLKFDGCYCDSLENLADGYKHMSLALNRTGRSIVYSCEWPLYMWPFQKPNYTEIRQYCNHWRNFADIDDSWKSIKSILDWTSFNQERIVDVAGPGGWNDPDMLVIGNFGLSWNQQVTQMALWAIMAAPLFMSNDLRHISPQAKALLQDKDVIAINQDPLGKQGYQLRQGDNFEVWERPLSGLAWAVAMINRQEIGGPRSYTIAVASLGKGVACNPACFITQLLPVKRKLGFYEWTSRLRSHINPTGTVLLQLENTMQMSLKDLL

Structures are written as SMILES. Where “and” joins values, the source holds several entries; their conditions need not be identical. Identical values can stand only once. The list shows a part of the results, in another mix than the full data. Calls of active or inactive are those of the source. Calls come from the whole dose curve; as a rule, active = well fitted inhibition curve with a large enough effect; inconclusive = small, poorly fitted or top-dose-only effect, or effect the other way; inactive = flat fitted curve, though single readings scatter.

This assay has as its target Alpha-galactosidase A (Homo sapiens) (UniProt P06280). The assay is described as follows: qHTS Assay for Inhibitors and Activators of Human alpha-Galactosidase From Spleen Homogenate.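 Note: 0% = enzyme with vehicle and -100% = no enzyme basal signal.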 The conditions noted are these: 4MU-alpha-Gal fluorescence, 40 min. The text has this: NIH Chemical Genomics Center [NCGC] NIH Molecular Libraries Probe Production Centers Network [MLPCN] MLPCN Grant: R03 MH084842-01 Assay Submitter (PI): Wei Zheng NCGC Assay Overview: Alpha-galactosidase is a homodimeric glycoprotein that hydrolyzes the terminal alpha-galactosyl moieties from glycolipids and glycoproteins. Deficiency of this enzyme results in Fabry Disease with progressive accumulation of globotriaosylceramide and other glycosphingolipids in vascular endothelial cells that causes renal failure, myocardial infarction and stroke, and premature death in patients. It has been reported that the improper folding and trafficking of alpha-galactosidase resulting from genetic mutations may account for a significant number of Fabry patients. […] We optimized this alpha-galactosidase assay in 1536-well plate format for identification of novel small molecule inhibitors or activators with structures other than the sugar analogs in order to develop new pharmacological chaperones. In particular, this assay is directed towards discovering compounds active in more natural setting, tissue homogenate, that may have been missed by screens of the purified enzyme under more stringent conditions.
NCGC Assay Protocol Summary: This is a fluorogenic enzyme assay with 4-methylumbelliferyl-alpha-D-galactopyranoside as the substrate and human spleen homogenate containing alpha-galactosidase as the enzyme preparation. Upon hydrolysis of this fluorogenic substrate, the resulting product, 4-methylumbelliferone (which excites at 365 nm and emits at 440 nm) can be detected by a fluorescence plate reader. Data were normalized to the controls for basal activity (without enzyme) and 100% activity (with enzyme). The AC50 values were determined from concentration-response data modeled with the standard Hill equation. Assay buffer: 50 mM citric acid (titrated with potassium phosphate to pH 5.0), 0.01% Tween-20 (pH 5.0 is an optimal condition for this enzyme assay) 1536-well assay protocol for the alpha-galactosidase from human spleen homogenate: (1) Add 2 ul/well spleen homogenate (1 ug) (2) Add 23 nL compounds in DMSO solution. The final titration was 0.5 nM to 58 uM. (3) Add 2 ul of substrate (1 mM final) (4) Incubate at 37C for 40 min (5) Add 2 ul stop solution (1M NaOH and 1M Glycine mixture, pH 10) (6) Detect the assay plate in a ViewLux plate reader (PerkinElmer) with Ex=365 nm and Em=440nm. Keywords: Alpha-galactosidase, Fabry Disease, pharmacological chaperone, chaperone therapy, high throughput screening, alpha- galactosidase inhibitor, MLSMR, MLSCN, NIH Roadmap, qHTS and NCGC
(qHTS replaces the single test concentration by a dilution series.)

Where [1] appears, read: at 80 µM (top of the series) unless noted.

On to `CN(C)C(=O)Oc1noc2ccccc12`, for which, under setting [1], the activity change, negative = inhibition was inactive: 10.5%.

`O=c1c2cc([N+](=O)[O-])ccc2[nH]c2c([N+](=O)[O-])cc([N+](=O)[O-])cc12`: the activity change, negative = inhibition under setting [1] is inactive: -4.57%.

For the molecule `Cc1ccccc1OP(=O)(Nc1ccccn1)Oc1ccccc1C`, the activity change, negative = inhibition under setting [1] is inactive: -3.86%.

Turning to `CCC(=O)N1C2C3N(C(=O)CC)C1C1N(C(=O)CC)C(C(N1C(=O)CC)N3C(=O)CC)N2C(=O)CC`, the activity change, negative = inhibition under setting [1] was inactive: 2.06%.

For `CN(C(=O)Cc1ccc(Cl)c(Cl)c1)[C@@H]1CCCC[C@@H]1N1CCCC1`, the activity change, negative = inhibition under setting [1] was inactive: -1.53%.

Take `Cc1ccc(OP(=O)(Nc2ccccn2)Oc2ccc(C)cc2)cc1`: under setting [1], the activity change, negative = inhibition is inactive: -10.5%.

Turning to `CC(=O)NC(SC(=S)N(CC(C)C)CC(C)C)C(Cl)(Cl)Cl` (stereo not drawn), under setting [1], the activity change, negative = inhibition is inactive: -14.8%.

Consider `COC(=O)c1cc2c(s1)N=C(c1ccccc1)N(C)P2(=O)N1CCOCC1` (stereo not drawn), for which, under setting [1], the activity change, negative = inhibition was inactive: -0.0736%.

On to `Nc1ccccc1[As](=O)(O)c1ccccc1`, for which, under setting [1], the activity change, negative = inhibition was inactive: 1.7%.

With `O=C(O)COc1ccc([As](=O)(O)O)cc1[N+](=O)[O-]`, the activity change, negative = inhibition under setting [1] was inactive: -5.89%.

As for `O=P(Nc1nccs1)(c1ccccc1)c1nc2ccccc2s1` (stereo not drawn), the activity change, negative = inhibition under setting [1] was inactive: 15.5%.

With `O=P(Nc1nccs1)(Oc1ccccc1)Oc1ccccc1`, the activity change, negative = inhibition under setting [1] was inactive: 6.67%.

Take `CCOP1(=S)c2c(C)nn(CCC#N)c2N=C(c2ccccc2F)N1C` (stereo not drawn): under setting [1], the activity change, negative = inhibition was inactive: -1.36%.

Regarding `CS(=O)(=O)c1cc([N+](=O)[O-])c2no[n+]([O-])c2c1`, the activity change, negative = inhibition under setting [1] is inactive: -3.14%.

On to `CCOP1(=S)c2c(C)nn(CCC#N)c2N=C(c2ccc(F)cc2)N1C` (stereo not drawn), for which, under setting [1], the activity change, negative = inhibition is inactive: 3%.

Turning to `CN(C(=O)Cc1ccccc1)[C@@H]1CC[C@]2(CCCO2)C[C@H]1N1CCCC1`, under setting [1], the activity change, negative = inhibition was inactive: -18.4% and inactive: 26.6%.

Turning to `O=[N+]([O-])c1ccc2c(c1)nnn2O`, the activity change, negative = inhibition under setting [1] was inactive: 7.19%.

For `O=[N+]([O-])CC(O)c1ccc([N+](=O)[O-])cc1` (stereo not drawn), the activity change, negative = inhibition under setting [1] is inactive: -6.31%.

For `NC(=O)Nc1ccc([As](=O)(O)O)cc1`, the activity change, negative = inhibition is, setting by setting: (at 29.1 µM (top of the series)) inactive: 1.72%; (at 80 µM (top of the series)) inactive: 4.11% and inactive: 10.7%.

Regarding `O=[As](O)(c1cccc(O)c1)c1cccc(O)c1`, under setting [1], the activity change, negative = inhibition is inactive: -1.3%.

`Cc1cccc(OCC(=O)OC2CN3CCC2CC3)c1` (stereo not drawn): the activity change, negative = inhibition under setting [1] is inactive: 9.07%.

With `CN(C(=O)Cc1ccc(Cl)c(Cl)c1)[C@@H]1CC[C@]2(CCCO2)C[C@H]1N1CCCC1`, under setting [1], the activity change, negative = inhibition is inactive: 7.83% and inactive: 15.5%.

For `COc1cc(C(=O)NCC2(N3CCOCC3)CCCCC2)cc(Cl)c1OC(C)C`, the activity change, negative = inhibition under setting [1] is inactive: -2.28%.

Turning to `O=[As](O)(O)c1cccnc1`, the activity change, negative = inhibition under setting [1] is inactive: -8.45%.

Turning to `CCOP(=O)(Nc1cccc2ccccc12)OCC`, under setting [1], the activity change, negative = inhibition is inactive: 5.63%.

Turning to `COc1cc(C2NCCC3(OCCO3)C2(C)C)cc(OC)c1OC` (stereo not drawn), the activity change, negative = inhibition under setting [1] is inactive: 3.79%.

For `Nc1cccc2c([As](=O)(O)O)cccc12`, under setting [1], the activity change, negative = inhibition was inactive: 4.49%.

Turning to `Cc1ccc(NCCc2c([N+](=O)[O-])cc([N+](=O)[O-])cc2[N+](=O)[O-])cc1`, the activity change, negative = inhibition under setting [1] is inactive: 5.39%.

Consider `CCCOP(=S)(Nc1nc(N)cc(=O)[nH]1)OCCC`, for which the activity change, negative = inhibition under setting [1] is inactive: -4.68%.

Take `CC(C)(C)C(=O)NC(Sc1ncccn1)C(Cl)(Cl)Cl` (stereo not drawn): the activity change, negative = inhibition under setting [1] was inactive: -4.4%.

As to `Clc1n[nH]nc1-c1nn[nH][15n]1`, the activity change, negative = inhibition under setting [1] is inactive: -18.7%.

On to `O=P1(Nc2ccccn2)COc2ccccc2OC1`, for which the activity change, negative = inhibition under setting [1] was inactive: 4.76%.

With `CN(CCCl)Cc1cc(Cl)c(NC2=NCCN2)c(Cl)c1`, the activity change, negative = inhibition under setting [1] is inactive: -6.82% and inactive: -1.02%.

For `CCOP(=O)(Nc1ccc(C)cn1)OCC`, under setting [1], the activity change, negative = inhibition was inactive: 2.85%.

Turning to `CC(C)/C=N\N=C(\N)N[N+](=O)[O-]`, the activity change, negative = inhibition under setting [1] is inactive: -10.2%.

As for `CN(C(=O)Cc1ccc(Cl)c(Cl)c1)[C@@H]1CCCC[C@H]1N1CCCC1`, the activity change, negative = inhibition under setting [1] was inactive: 14.2% and inactive: 3.12% and inactive: 1.89%.

As for `O=[As](O)(c1ccccc1Br)c1ccccc1Br`, the activity change, negative = inhibition under setting [1] is inactive: 0.303%.

Consider `CN(C)C1(CNC(=O)c2ccc(S(C)(=O)=O)cc2)CCCCC1`, for which, under setting [1], the activity change, negative = inhibition is inactive: -2.53%.

As to `O=C(/C=C/c1ccccc1)OC1CN2CCC1CC2` (stereo not drawn), the activity change, negative = inhibition under setting [1] was inactive: -7.12%.

On to `CC1CCC(C(C)C)C(OP(=O)(Nc2ccccn2)c2ccccc2)C1` (stereo not drawn), for which, under setting [1], the activity change, negative = inhibition was inactive: -9.63%.

For the molecule `Cc1nn(-c2ccccc2)c2c1P(=O)(N1CCOCC1)N(C)C(c1ccccc1)=N2` (stereo not drawn), under setting [1], the activity change, negative = inhibition was inactive: 0.997%.

Regarding `Nc1cccc([As](=O)(O)c2ccccc2)c1`, under setting [1], the activity change, negative = inhibition is inactive: 3.47%.

With `O=P1(Nc2ccc(Br)cn2)COc2ccccc2OC1`, under setting [1], the activity change, negative = inhibition is inactive: 6.57%.

For the molecule `O=[As](O)(c1cccs1)c1cccs1`, the activity change, negative = inhibition under setting [1] was inactive: 18%.

Turning to `Cc1ccc(OCC(=O)OC2CN3CCC2CC3)cc1` (stereo not drawn), under setting [1], the activity change, negative = inhibition is inactive: -1.75%.

On to `O=P1(Nc2ncccn2)COc2ccccc2OC1`, for which, under setting [1], the activity change, negative = inhibition is inactive: 7.17%.

In the case of `Cc1cc(SC(NC(=O)c2ccccc2)C(Cl)(Cl)Cl)nc(C(C)C)n1` (stereo not drawn), the activity change, negative = inhibition under setting [1] is inactive: -6.61%.

On to `CCOC(=O)Nc1ccc([As](=O)(O)O)c(O)c1`, for which the activity change, negative = inhibition under setting [1] is inactive: -15%.

As to `CN(N=O)C(=N)N[N+](=O)[O-]`, under setting [1], the activity change, negative = inhibition is inactive: 5.03%.

As for `O=P(Nc1ccccn1)(c1cccc2ccccc12)c1cccc2ccccc12`, the activity change, negative = inhibition under setting [1] was inactive: 4.98%.

As for `Cc1cc(SC(NC=O)C(Cl)(Cl)Cl)ncn1` (stereo not drawn), under setting [1], the activity change, negative = inhibition is inactive: -1.53%.

Take `O=[N+]([O-])c1ccc(Nc2ccc(Oc3ccc([N+](=O)[O-])cc3[N+](=O)[O-])cc2)c([N+](=O)[O-])c1`: the activity change, negative = inhibition under setting [1] was inactive: 4.98%.

`CCOC(=O)Nc1cccc([As](=O)(O)O)c1`: the activity change, negative = inhibition under setting [1] is inactive: 5.09%.

On to `O=C(COc1ccccc1)OC1CN2CCC1CC2` (stereo not drawn), for which the activity change, negative = inhibition under setting [1] was inactive: 16.3%.

As for `COP1(=S)c2c(C)nn(CCC#N)c2N=C(c2ccc(F)cc2)N1C` (stereo not drawn), the activity change, negative = inhibition under setting [1] is inactive: -0.264%.

In the case of `CCC(C)N(CC(C)C)C(=S)SC(NC(C)=O)C(Cl)(Cl)Cl` (stereo not drawn), under setting [1], the activity change, negative = inhibition was inactive: 1.21%.

Turning to `CCOC(=O)c1ccc(NC(=O)C(C)(CCl)SC)cc1` (stereo not drawn), under setting [1], the activity change, negative = inhibition was inactive: 6.86%.

For the molecule `COc1cc(I)ccc1[As](=O)(O)O`, the activity change, negative = inhibition under setting [1] was inactive: 7.88%.

In the case of `COc1ccc2nc(NP(=O)(c3ccccc3)c3ccccc3)sc2c1`, the activity change, negative = inhibition under setting [1] was inactive: -3.53%.

In the case of `Cc1c2c(nc3ccccc13)SC(C(Cl)Cl)C2` (stereo not drawn), the activity change, negative = inhibition under setting [1] is inactive: 13.6%.

Consider `Cc1cc(=O)[nH]c(N[N+](=O)[O-])n1`, for which the activity change, negative = inhibition under setting [1] was inactive: 3.87%.

For the molecule `O=C(OC1CN2CCC1CC2)C12CC3CC(CC(C3)C1)C2` (stereo not drawn), the activity change, negative = inhibition under setting [1] is inactive: 3%.

Take `COc1ccc(N/C(=N/P(=O)(N2CCOCC2)N2CCOCC2)N2CCOCC2)cc1`: the activity change, negative = inhibition under setting [1] is inactive: 7.39%.

As for `Cc1ccc(OP(=O)(Nc2ccc([N+](=O)[O-])cn2)Oc2ccc(C)cc2)cc1`, the activity change, negative = inhibition under setting [1] was inactive: -10.3%.

For `Cc1ccc2nc3c(c(C)c2c1)CC(C(Cl)Cl)S3` (stereo not drawn), the activity change, negative = inhibition under setting [1] was inactive: 1.56%.

For `O=[As](O)(c1ccc(O)cc1)c1ccccc1O`, the activity change, negative = inhibition under setting [1] is inactive: 4.99%.

On to `C[As](=O)(O)c1cccc(C(=O)O)c1`, for which the activity change, negative = inhibition under setting [1] is inactive: 4.59%.

Consider `O=[N+]([O-])c1cc([N+](=O)[O-])c(-c2ccn[nH]2)s1`, for which the activity change, negative = inhibition under setting [1] was inactive: -3.03%.

Regarding `CCN(CC)C(=S)SC(NC=O)C(Cl)(Cl)Cl` (stereo not drawn), the activity change, negative = inhibition under setting [1] is inactive: 14.1%.

Take `CC(C)NC(=O)NP(=O)(Oc1ccccc1)Oc1ccccc1`: the activity change, negative = inhibition under setting [1] was inactive: -8.02%.

As for `ClCCSc1nnc(-c2cccnc2)o1`, the activity change, negative = inhibition under setting [1] was inactive: 8.59%.

On to `CC(C)c1ccc(OP(=O)(Nc2ccccn2)Oc2ccccc2F)cc1` (stereo not drawn), for which, under setting [1], the activity change, negative = inhibition was inactive: -5.61%.
